Measured values: PMC11266321 (EJNMMI Radiopharmacy and Chemistry, 2024)

Amino acid sequences for entries named in this document (tags omitted). A change or cut given only in a name is not applied to a line headed by its entry.
UniProt Q9Y5N1: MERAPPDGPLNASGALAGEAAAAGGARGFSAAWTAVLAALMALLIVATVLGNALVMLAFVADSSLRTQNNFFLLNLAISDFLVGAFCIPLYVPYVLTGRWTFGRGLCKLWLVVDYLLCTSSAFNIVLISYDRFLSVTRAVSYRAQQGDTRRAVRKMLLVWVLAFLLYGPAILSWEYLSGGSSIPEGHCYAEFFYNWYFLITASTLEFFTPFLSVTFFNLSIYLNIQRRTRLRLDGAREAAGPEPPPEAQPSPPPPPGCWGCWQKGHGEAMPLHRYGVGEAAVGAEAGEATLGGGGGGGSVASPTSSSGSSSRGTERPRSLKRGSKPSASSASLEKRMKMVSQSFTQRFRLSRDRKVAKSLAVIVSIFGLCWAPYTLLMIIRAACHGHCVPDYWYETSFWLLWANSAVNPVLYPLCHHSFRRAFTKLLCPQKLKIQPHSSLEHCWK

Molecular target: T1, Histamine H3 (Homo sapiens, UniProt Q9Y5N1)
T1 construct: Sekisui Medical (contract laboratory)
Experiment: Radioligand binding inhibition, Histamine H3
Conditions: 10 µM; radioligand [^3H]N-methyl-histamine; mean of duplicate
Experimental: Interaction of MMP with 28 binding sites was examined, including major classes of neurotransmitter receptor, uptake system, and ion channels (Sekisui Medical, Naka, Japan). MMP was tested in all assays at 10 µM. […] 10.2.3 (GraphPad Software, San Diego, CA). Each determination was made in duplicate.
Test substance concentration : 10 µM, positive substance concentration : 10 µM
Data are expressed as the mean values of duplicate samples.
The % inhibition was calculated from “100 – binding ratio”.
Binding ratio: [(B - N) / (B0 - N)] × 100 (%)
B: Bound radioactivity in the presence of test substance and positive substance (individual value)
B0: Total bound radioactivity in the absence of test substance and positive substance (mean value)
N: Non-specific bound radioactivity (mean value)

**Q.** “(R)(–)-α-Methylhistamine [reference compound]” was tested. Which “Inhibition ratio (%)” value did it give?
**A.** The value was 99.25%.
